# According to paper PMC4283194 (Neuroimage, 2014):
# By UniProt entry, the sequences of proteins in these tests, tags left out.
# UniProt P21554, whole entry: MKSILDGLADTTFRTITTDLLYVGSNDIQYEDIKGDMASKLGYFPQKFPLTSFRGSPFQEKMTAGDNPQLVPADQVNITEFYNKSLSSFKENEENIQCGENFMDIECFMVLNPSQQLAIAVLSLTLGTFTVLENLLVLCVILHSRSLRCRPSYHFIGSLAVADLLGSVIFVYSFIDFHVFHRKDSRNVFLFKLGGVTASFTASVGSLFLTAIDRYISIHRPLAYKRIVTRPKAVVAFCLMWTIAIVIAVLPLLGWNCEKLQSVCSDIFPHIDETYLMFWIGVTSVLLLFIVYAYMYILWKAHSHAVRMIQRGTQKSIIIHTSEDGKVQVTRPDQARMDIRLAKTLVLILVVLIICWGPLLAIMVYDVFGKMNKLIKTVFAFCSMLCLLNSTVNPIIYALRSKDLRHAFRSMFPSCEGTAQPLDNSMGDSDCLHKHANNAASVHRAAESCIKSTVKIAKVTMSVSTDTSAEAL
# How the values were obtained:
# CB1 receptor [1] = target: T1, CB1 receptor (Homo sapiens, UniProt P21554); assay: [11C]MePPEP PET, VT by classic spectral analysis parametric maps (SA-maps); format: in vivo; parameters: assess the stability of CB1-receptor quantification in humans in vivo; from tissue; host or cells: living human brain (healthy volunteers), in vivo PET
# Method: (§1) Continuous and intermittent blood samples were collected to allow the subsequent generation of metabolite-corrected arterial plasma time–activity curves (TACs) ([Hammers et al., 2008]). During the first 15 min blood was withdrawn continuously at a rate of 300 ml/h and radioactivity measured in a BGO detection system ([Jones et al., 1994]). To quantify plasma and whole blood radioactivity, as well as to allow quantification of the parent fraction of the radiotracer, intermittent discrete (10 ml) samples were taken with heparinised syringes before the scan (baseline) and at the following time points after scan start: 3, 5, 10, 15, 20, 30, and 50 min. At 75 min, a larger 17 ml sample was taken to allow quantification despite radioactivity decay. […] Continuous plasma input functions (IF) were derived by cross-calibration and combination of the continuous and discrete data, multiplication with the fitted plasma-over-blood ratio, and correction for parent radiotracer fraction, as described in detail in previous studies ([Hammers et al., 2007a], [Jones et al., 1994]).
# The resulting parametric maps of VT values were then sampled in the eight selected ROIs.
# [2] = measured LogD at pH 7.4; ref Yasuno et al., 2008; cited from earlier work
# CB1 receptor [3] = target: T1, CB1 receptor; assay: [11C]MePPEP PET, VT by classic spectral analysis on ROI data (SA-ROIs); format: in vivo; parameters: assess the stability of CB1-receptor quantification in humans in vivo; from tissue; host or cells: living human brain (healthy volunteers), in vivo PET; VT median: unit not given beside the values
# Method: as §1
# Volumes of distribution (VTs) ([Innis et al., 2007]) for each ROI were obtained from the dynamic images and the metabolite-corrected IFs using spectral analysis (SA) ([Cunningham and Jones, 1993], [Cunningham et al., 1993], [Turkheimer et al., 1994]). The fast frequency boundary was kept at the default value of 0.1 s^− 1. […] Based on previous work with another tracer with relatively slow kinetics ([Hammers et al., 2007a]), we changed this to 0.00063 s^− 1 (log10 = − 3.20) in order to reduce noise.
# CB1 receptor [4] = target: T1, CB1 receptor; assay: [11C]MePPEP PET, modified standard uptake values (mSUV); format: in vivo; parameters: assess the stability of CB1-receptor quantification in humans in vivo; from tissue; host or cells: living human brain (healthy volunteers), in vivo PET; details: for mSUV median: ~30–60 min after injection
# Method: Modified standard uptake values (mSUVs; [Innis et al., 2007]) for frames 25–31, i.e. from 29 min 50 s to 58 min 50 s after injection, were also derived for the ROIs according to ([Goffin et al., 2011]):(4) activity×weightkg+70kg/2/injecteddose.
smiles,measurement,setting,value
"COc1cccc([C@H]2C[C@@H](N[C@H](C)c3ccccc3)C(=O)N2c2ccc(C(F)(F)F)cc2)c1 [[^11C]MePPEP, (3R,5R)-5-(3-methoxy-phenyl)-3-((R)-1-phenyl-ethylamino)-1-(4-trifluoro-methyl-phenyl)-pyrrolidin-2-one]",Ratio pallidum/pons of VT,CB1 receptor [1],3.6
same,"Median % diff (test–retest) of VT, mean (SD) across regions",CB1 receptor [1]; 8 ROIs,13.5 (3.3) % and 13.5 ± 3.3%
same,ICC of VT,CB1 receptor [1]; ACG,0.85
same,Mean BS % CV of VT,CB1 receptor [1]; ACG,34.7%
same,Median % diff (test–retest) of VT,CB1 receptor [1]; ACG,12.5%
same,ICC of VT,CB1 receptor [1]; Accumbens,0.83
same,Mean BS % CV of VT,CB1 receptor [1]; Accumbens,36.0%
same,Median % diff (test–retest) of VT,CB1 receptor [1]; Accumbens,12.3%
same,VT median,CB1 receptor [1]; Accumbens,9.5
same,ICC of VT,CB1 receptor [1]; Caudate,0.81
same,Mean BS % CV of VT,CB1 receptor [1]; Caudate,40.0%
same,Median % diff (test–retest) of VT,CB1 receptor [1]; Caudate,12.3%
same,ICC of VT,CB1 receptor [1]; Hippocampus,0.87
same,Mean BS % CV of VT,CB1 receptor [1]; Hippocampus,34.2%
same,Median % diff (test–retest) of VT,CB1 receptor [1]; Hippocampus,9.6%
same,ICC of VT,CB1 receptor [1]; IFG,0.85
same,Mean BS % CV of VT,CB1 receptor [1]; IFG,37.0%
same,Median % diff (test–retest) of VT,CB1 receptor [1]; IFG,12.0%
same,ICC of VT,CB1 receptor [1]; Pallidum,0.83
same,Mean BS % CV of VT,CB1 receptor [1]; Pallidum,35.4%
same,Median % diff (test–retest) of VT,CB1 receptor [1]; Pallidum,12.6%
same,ICC of VT,CB1 receptor [1]; Pons,0.81
same,Mean BS % CV of VT,CB1 receptor [1]; Pons,39.0%
same,Median % diff (test–retest) of VT,CB1 receptor [1]; Pons,20.2%
same,ICC of VT,CB1 receptor [1]; Thalamus,0.76
same,Mean BS % CV of VT,CB1 receptor [1]; Thalamus,37.1%
same,Median % diff (test–retest) of VT,CB1 receptor [1]; Thalamus,16.8%
same,LogD7.4,[2],4.8
same,Ratio pallidum/pons of VT,CB1 receptor [3],2.6
same,"Median % diff (test–retest) of VT, mean (SD) across regions",CB1 receptor [3]; 8 ROIs,15.5 (6.0) % and 15.5 ± 5.9%
same,ICC of VT,CB1 receptor [3]; ACG,0.74
same,Mean BS % CV of VT,CB1 receptor [3]; ACG,35.0%
same,Median % diff (test–retest) of VT,CB1 receptor [3]; ACG,12.4%
same,ICC of VT,CB1 receptor [3]; Accumbens,0.80
same,Mean BS % CV of VT,CB1 receptor [3]; Accumbens,35.2%
same,Median % diff (test–retest) of VT,CB1 receptor [3]; Accumbens,15.1%
same,ICC of VT,CB1 receptor [3]; Caudate,0.74
same,Mean BS % CV of VT,CB1 receptor [3]; Caudate,44.2%
same,Median % diff (test–retest) of VT,CB1 receptor [3]; Caudate,13.6%
same,VT median,CB1 receptor [3]; Caudate,13.0
same,ICC of VT,CB1 receptor [3]; Hippocampus,0.87
same,Mean BS % CV of VT,CB1 receptor [3]; Hippocampus,34.1%
same,Median % diff (test–retest) of VT,CB1 receptor [3]; Hippocampus,10.9%
same,ICC of VT,CB1 receptor [3]; IFG,0.71
same,Mean BS % CV of VT,CB1 receptor [3]; IFG,39.0%
same,Median % diff (test–retest) of VT,CB1 receptor [3]; IFG,13.3%
same,ICC of VT,CB1 receptor [3]; Pallidum,0.85
same,Mean BS % CV of VT,CB1 receptor [3]; Pallidum,35.5%
same,Median % diff (test–retest) of VT,CB1 receptor [3]; Pallidum,9.4%
same,ICC of VT,CB1 receptor [3]; Pons,0.67
same,Mean BS % CV of VT,CB1 receptor [3]; Pons,35.5%
same,Median % diff (test–retest) of VT,CB1 receptor [3]; Pons,24.8%
same,ICC of VT,CB1 receptor [3]; Thalamus,0.70
same,Mean BS % CV of VT,CB1 receptor [3]; Thalamus,39.4%
same,Median % diff (test–retest) of VT,CB1 receptor [3]; Thalamus,24.7%
same,"Median % diff (test–retest) of mSUV, mean (SD) across regions",CB1 receptor [4]; 8 ROIs,12 ± 10% and 12.0 (10.1) % and 12.0 ± 10.1%
same,ICC of mSUV,CB1 receptor [4]; ACG,0.86
same,Mean %BS-CV of mSUV,CB1 receptor [4]; ACG,27.2%
same,Median % diff (test–retest) of mSUV,CB1 receptor [4]; ACG,8.8%
same,ICC of mSUV,CB1 receptor [4]; Accumbens,0.80
same,Mean %BS-CV of mSUV,CB1 receptor [4]; Accumbens,27.9%
same,Median % diff (test–retest) of mSUV,CB1 receptor [4]; Accumbens,6.7%
same,ICC of mSUV,CB1 receptor [4]; Caudate,0.79
same,Mean %BS-CV of mSUV,CB1 receptor [4]; Caudate,30.1%
same,Median % diff (test–retest) of mSUV,CB1 receptor [4]; Caudate,7.6%
same,ICC of mSUV,CB1 receptor [4]; Hippocampus,0.84
same,Mean %BS-CV of mSUV,CB1 receptor [4]; Hippocampus,27.4%
same,Median % diff (test–retest) of mSUV,CB1 receptor [4]; Hippocampus,8.3%
same,mSUV median,CB1 receptor [4]; Hippocampus,2.7
same,ICC of mSUV,CB1 receptor [4]; IFG,0.86
same,Mean %BS-CV of mSUV,CB1 receptor [4]; IFG,27.3%
same,Median % diff (test–retest) of mSUV,CB1 receptor [4]; IFG,8.9%
same,ICC of mSUV,CB1 receptor [4]; Pallidum,0.84
same,Mean %BS-CV of mSUV,CB1 receptor [4]; Pallidum,27.1%
same,Median % diff (test–retest) of mSUV,CB1 receptor [4]; Pallidum,11.1%
same,mSUV median,CB1 receptor [4]; Pallidum,3.6
same,ICC of mSUV,CB1 receptor [4]; Pons,0.47
same,Mean %BS-CV of mSUV,CB1 receptor [4]; Pons,63% and 62.6%
same,Median % diff (test–retest) of mSUV,CB1 receptor [4]; Pons,37% and 36.7%
same,ICC of mSUV,CB1 receptor [4]; Thalamus,0.83
same,Mean %BS-CV of mSUV,CB1 receptor [4]; Thalamus,25.8%
same,Median % diff (test–retest) of mSUV,CB1 receptor [4]; Thalamus,8.1%
same,mSUV median,CB1 receptor [4]; Thalamus,2.7
same,Ratio pallidum/pons of mSUV,CB1 receptor [4]; in vivo,4.2

# “And” between values parts separate entries of the source, which are not always exact repeats. Equal values may be shown once.
